Where “and” joins values, the source holds several entries; their conditions need not be identical. Identical values can stand only once. Like-named read-outs stand apart in the source and are kept apart here.
Experiments:
[1] = Liquid oral delivery of PYY[3-36] in rats (oral gavage, serum PYY[3-36] radioimmunoassay); conditions: for Mean Peak Serum [PYY(3-36)] (pg/ml) ± SD: oral gavage solution, rats, 1 ml/kg
Method: SNAC monosodium salt, solid was dissolved in water. The pH of this solution was close to pH 7.5, so no pH adjustments were done. […] The final pH of these solutions was 7.5.
The pH was then lowered to 7.7 by adding HCl (5N). […] The final pH of these solutions varied between 7.5 and 7.6.
Each delivery agent compound (as the free acid or monosodium salts) was dissolved in water. The pH was adjusted to approximately 7.5 by adding HCl (5N) and NaOH (5N) as needed. […] The final pH of these solutions was approximately 7.5.
The typical dosing and sampling protocols were as follows. Male Sprague-Dawley rats weighing between 240-320 g were fasted up to a maximum 24 hours before the experiments and administered ketamine (44 mg/kg) and thorazine (1.5 mg/kg) by intramuscular injection before the test article administration. Afterwards, the anesthetized animals were administered the test article by oral gavage. A dosing group of five animals was administered one of the dosing solutions. For oral gavage (PO), an 11 cm Rusch 8 French catheter was adapted to a 1 ml syringe with a pipette tip. The syringe was filled with dosing solution by drawing the solution through the catheter, which was then wiped dry. The catheter was placed down the esophagus leaving 1 cm of tubing past the incisors. The dosing solution was administered by pressing the syringe plunger.
(§1) Blood samples were collected serially from the tail artery, or by cardiac puncture, typically at time=0, 15, 30, 45, 60 and 90 minutes. […] Results from the animals in each group were averaged for each time point.

[2] = Mini-tablets of PYY[3-36] and SNAD to feed restricted rats (serum PYY[3-36] radioimmunoassay); assay type: in vivo, Male Sprague Dawley rats; conditions: fasted rats, PYY[3-36] or SNAD administered alone
[3] = PYY[3-36] solid oral delivery in Cynomolgus monkeys (serum PYY radioimmunoassay); assay type: in vivo
Method: Capsules were prepared as follows. […] Pre-weighed size 2 capsules were packed with the blend using a clean metal spatula. The final capsules were reweighed and determined to contain >98% of the transferred blend.
Tablets were prepared as follows.
Each solid dosage form was delivered directly into the stomach using a gavage tube. The capsule or tablet was ejected by air flush.

[4] = Solid oral delivery of PYY[3-36] in feed restricted rats (serum PYY radioimmunoassay); assay type: in vivo, Male Sprague Dawley rats; conditions: 1 tablet per animal
Method: (§2) An oral dosing tube was used.
(§3) Blood samples were collected serially from the tail artery, by cardiac puncture, or as in this case by retro-orbitally, typically at time=0, 15, 30, 60 and 90 minutes.

[5] = Solid oral delivery of PYY[3-36] in non-feed restricted rats; assay type: in vivo; conditions: 1 tablet per animal
From the text: Rats were subjected to solid oral dosage forms consisting of PYY [3-36] and a carrier agent as described above in Example 3a, except no food restriction was imposed upon the rats prior to administration of the solid dosage forms.

[6] = Dosage forms of disodium salt of SNAD and PYY[3-36] and intraperitoneal dosing of PYY[3-36] in rats (serum PYY radioimmunoassay); assay type: in vivo, Male Sprague Dawley rats
Method: Liquid dosage forms were prepared as follows. […] A liquid solution of delivery agent was prepared by dissolving the disodium salt of SNAD in water. The pH of the resulting disodium SNAD solution was about 10. […] Liquid dosage forms having between about 100 and 200 mg/kg disodium SNAD and between about 0.3 and 1 mg/kg PYY[3-36] were prepared according to this procedure. The final pH of the liquid dosage forms was between about 9 and 10.
Solid dosage forms were prepared as follows. About 0.08 mg/tablet (about 0.3 mg/kg) of PYY (about 1 μl) was added and blended with either about 13.5 or about 27 mg/tablet (about 50 or 100 mg/kg) Delivery Agent.
as §2, §3

[7] = IP, rats, 0.5 ml/kg, no delivery agent
Method: The typical dosing and sampling protocols were as follows. Male Sprague-Dawley rats weighing between 240-320 g were fasted up to a maximum 24 hours before the experiments and administered ketamine (44 mg/kg) and thorazine (1.5 mg/kg) by intramuscular injection before the test article administration. […] A dosing group of five animals was administered one of the dosing solutions.
as §1

[8] = Delivery Agent 100 mg/kg, PYY[3-36] 0.5 mg/kg

Substance: N-(10-[2-hydroxybenzoyl]-amino)decanoic acid [Delivery Agent 2]
- Mean Peak Serum [PYY(3-36)] (pg/ml) ± SD ([1]; Delivery Agent 100 mg/kg, PYY[3-36] 0.1 mg/kg): 44.63 ± 53.53 pg/mL
- Mean Peak Serum [PYY(3-36)] (pg/ml) ± SD [1, 8]: 273.69 ± 457.5 pg/mL
- Mean Peak Serum [PYY(3-36)] (pg/ml) ± SD ([1]; Delivery Agent 200 mg/kg, PYY[3-36] 0.1 mg/kg): 134.37 ± 236.708 pg/mL
- Mean Peak Serum [PYY(3-36)] (pg/ml) ± SD ([1]; Delivery Agent 200 mg/kg, PYY[3-36] 0.5 mg/kg): 430.29 ± 364.6 pg/mL
- changes in serum PYY[3-36] when administered alone [2]: No changes in serum PYY[3-36] were detected
- Mean serum peak of PYY (pg/ml) ± SD ([3]; 1 capsule per animal, Compound 50 mg, PYY(3-36) 1 mg): 419.68 ± 320.44 pg/mL
- Mean serum peak of PYY (pg/ml) ± SD ([3]; 1 capsule per animal, Compound 100 mg, PYY(3-36) 1 mg): 432.02 ± 309.47 pg/mL
- Mean serum peak of PYY (pg/ml) ± SD ([3]; 1 tablet per animal, Compound 50 mg/tablet, PYY(3-36) 1 mg/tablet): 925.86 ± 794.03 pg/mL
- Mean serum peak of PYY (pg/ml) ± SD ([4]; Delivery Agent 50 mg/kg, PYY[3-36] 0.3 mg/kg, listed as 2): 536.3 ± 424.7 pg/mL
- Mean serum peak of PYY (pg/ml) ± SD ([4]; Delivery Agent 100 mg/kg, PYY[3-36] 0.3 mg/kg, listed as 2): 512.4 ± 484.2 pg/mL

Substance: N-(10-[2-hydroxybenzoyl]-amino)decanoic acid [Delivery Agent 16]
- Mean serum peak of PYY (pg/ml) ± SD ([5]; Delivery Agent 50 mg/kg, PYY[3-36] 0.3 mg/kg): 1101 ± 1197 pg/mL
- Mean serum peak of PYY (pg/ml) ± SD ([5]; Delivery Agent 100 mg/kg, PYY[3-36] 0.3 mg/kg): 1011.5 ± 1287 pg/mL
- Mean serum peak of PYY (pg/ml) ± SD [5, 8]: 1735.6 ± 1108 pg/mL
- Mean serum peak of PYY (pg/ml) ± SD ([6]; oral liquid dose, Disodium SNAD 100 (mg/tablet), PYY(3-36) 0.3 (mg/tablet)): 1008.2 ± 145.16 pg/mL
- Mean serum peak of PYY (pg/ml) ± SD ([6]; oral liquid dose, Disodium SNAD 150 (mg/tablet), PYY(3-36) 0.5 (mg/tablet)): 2215.6 ± 1543.01 pg/mL
- Mean serum peak of PYY (pg/ml) ± SD ([6]; oral liquid dose, Disodium SNAD 150 (mg/tablet), PYY(3-36) 1 (mg/tablet)): 4697.8 ± 3009.48 pg/mL and 2432.4 ± 1702.55 pg/mL
- Mean serum peak of PYY (pg/ml) ± SD ([6]; oral liquid dose, Disodium SNAD 200 (mg/tablet), PYY(3-36) 0 (delivery agent alone)): 0 pg/mL
- Mean serum peak of PYY (pg/ml) ± SD ([6]; oral liquid dose, Disodium SNAD 200 (mg/tablet), PYY(3-36) 0.3 (mg/tablet)): 805.67 ± 583.78 pg/mL
- Mean serum peak of PYY (pg/ml) ± SD ([6]; oral solid dose, 1 tablet per animal, Disodium SNAD 100 (mg/tablet), PYY(3-36) 0.5 (mg/tablet)): 1518.36 ± 464.98 pg/mL and 3685.8 ± 880.43 pg/mL
- Mean serum peak of PYY (pg/ml) ± SD ([4]; Delivery Agent 25 mg/kg, PYY[3-36] 0.1 mg/kg): 274.1 ± 118.6 pg/mL
- Mean serum peak of PYY (pg/ml) ± SD ([4]; Delivery Agent 25 mg/kg, PYY[3-36] 0.3 mg/kg): 953.8 ± 660.3 pg/mL
- Mean serum peak of PYY (pg/ml) ± SD ([4]; Delivery Agent 25 mg/kg, PYY[3-36] 0.5 mg/kg): 494.6 ± 318.2 pg/mL
- Mean serum peak of PYY (pg/ml) ± SD ([4]; Delivery Agent 50 mg/kg, PYY[3-36] 0.1 mg/kg): 249.3 ± 144.0 pg/mL
- Mean serum peak of PYY (pg/ml) ± SD ([4]; Delivery Agent 50 mg/kg, PYY[3-36] 0.3 mg/kg, listed as 16): 617.4 ± 272.1 pg/mL and 988.7 ± 288.2 pg/mL and 847.3 ± 152 pg/mL and 421.08 ± 389.2 pg/mL
- Mean serum peak of PYY (pg/ml) ± SD ([4]; Delivery Agent 50 mg/kg, PYY[3-36] 0.5 mg/kg): 715 ± 208.0 pg/mL
- Mean serum peak of PYY (pg/ml) ± SD ([4]; Delivery Agent 50 mg/kg, PYY[3-36] 1 mg/kg): 739.6 ± 409.6 pg/mL
- Mean serum peak of PYY (pg/ml) ± SD ([4]; Delivery Agent 75 mg/kg, PYY[3-36] 0.3 mg/kg): 754.7 ± 539.8 pg/mL
- Mean serum peak of PYY (pg/ml) ± SD ([4]; Delivery Agent 100 mg/kg, PYY[3-36] 0.3 mg/kg, listed as 16): 1294.2 ± 351.4 pg/mL and 1560 ± 883.4 pg/mL and 980.7 ± 49.7 pg/mL and 939.88 ± 166.61 pg/mL
- Mean serum peak of PYY (pg/ml) ± SD [4, 8]: 852.2 ± 1119 pg/mL

Substance: PYY[3-36]
- PYY[3-36] detected in blood ([1]; rats dosed orally with PYY[3-36] alone): No significant PYY[3-36] was detected
- Mean Peak Serum [PYY] (pg/ml) ± SD ([7]; PYY[3-36] 0.005 mg/kg): 435.19 ± 56.07 pg/mL
- Mean Peak Serum [PYY] (pg/ml) ± SD ([7]; PYY[3-36] 0.05 mg/kg): 521.02 ± 111.54 pg/mL
- Mean Peak Serum [PYY] (pg/ml) ± SD ([7]; PYY[3-36] 0.1 mg/kg): 464.48 ± 77.48 pg/mL
- changes in serum PYY[3-36] when administered alone [2]: No changes in serum PYY[3-36] were detected
- Mean serum peak of PYY (pg/ml) ± SD ([6]; intraperitoneal injection, Disodium SNAD 0, PYY(3-36) 0.05 (mg/tablet)): 3671 ± 244.7 pg/mL and 6292.8 ± 1365.1 pg/mL

Source: patent US20050009748A1, “Compositions for delivering peptide YY and PYY agonists” (Emisphere Technologies, Inc., priority 2003, published 2005)
